This is an account of results in patent publication US9452185B2, “Mesenchymal stem cells and supports for tissue regeneration, repair and reconstruction” (THE TEXAS A&M UNIVERSITY SYSTEM, priority 2009, dated 2016).

The assay relates to hMSCs. The experiment in a line: Alkaline phosphatase (ALP) activity of hMSCs in osteogenic media. Format: cell-based, human. The settings on record: OBM with BMP2 100 or 200 ng·mL-1, 3 donors. How it is done: For non-mineralizing osteogenic differentiation, hMSCs were plated in 12-well plates at 100 cells cm^−2. Upon reaching about 70% confluency, the media was changed to osteogenic base media (OBM) containing 50 μg mL^−1 ascorbic acid and 5 mM β-glycerol phosphate and either GW9662 or DMSO. Media was changed every 2 days for 8-10 days following measurement of ALP activity. For this purpose, the monolayer was washed with PBS and then with ALP reaction buffer (100 mM Tris-HCl, pH 9, containing 100 mM KCl and 1 mM MgCl2). One half mL of ALP buffer then 0.5 mL p-nitrophenol phosphate (PNPP) was rapidly added to the wells. ALP activity was measured as the rate of PNPP conversion to p-nitrophenolate by monitoring the absorbance at 405 nm every 30 seconds for 9 minutes using a plate reader. The rates were normalized against cell number and statistically analyzed using one-way analysis of variance (ANOVA) and Tukey post test for multiple comparisons or by Student's t-test, for single, unrelated comparisons.
Early osteogenic differentiation and alkaline phosphatase assays. […]
In order to characterize the influence of 7AIPM on osteogenic differentiation, hMSC's from two donors were cultured as described elsewhere herein with the addition of varying concentrations of the compound or vehicle to the media. […] These samples were analyzed for the presence of OPG and Dkk-1 using ELISA. […]

bone morphogenic protein 2 [BMP2]: the ALP levels entry was “improved further”.
